Assay results: patent US10172843B2, “Piperidine derivatives” (Hoffmann-La Roche Inc., priority 2014, dated 2019)

By UniProt entry, the sequences of proteins in these tests, tags left out. Residues count along the entry.
UniProt P25774, 115-331 limits assumed: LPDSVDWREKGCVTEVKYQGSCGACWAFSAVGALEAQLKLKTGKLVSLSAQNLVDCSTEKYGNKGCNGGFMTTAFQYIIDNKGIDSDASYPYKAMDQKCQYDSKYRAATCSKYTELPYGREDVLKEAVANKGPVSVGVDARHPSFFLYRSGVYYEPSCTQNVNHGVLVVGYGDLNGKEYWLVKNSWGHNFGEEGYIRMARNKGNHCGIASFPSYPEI

Target: human Cat S (Homo sapiens (Human), UniProt P25774)
Test: Cathepsin enzyme inhibition assay (fluorogenic peptide substrate)
Format: biochemical
Details: read-out: CatS IC50, enzyme 1 nM, substrate Z-Val-Val-Arg-AMC, pH 6.5

Cc1ccc(-c2nc(CN3CCC(n4c(=O)[nH]c5cc(Cl)ccc54)CC3)c(C)[nH]2)cc1
IC50: 4.07 µM
